target: human growth hormone secretagogue receptor (human) (UniProt Q92847); assay: (125I)ghrelin displacement, hGHS-R CHO-K1 membranes

Amino acid sequences for entries named in this document (tags omitted).
UniProt Q92847, whole entry: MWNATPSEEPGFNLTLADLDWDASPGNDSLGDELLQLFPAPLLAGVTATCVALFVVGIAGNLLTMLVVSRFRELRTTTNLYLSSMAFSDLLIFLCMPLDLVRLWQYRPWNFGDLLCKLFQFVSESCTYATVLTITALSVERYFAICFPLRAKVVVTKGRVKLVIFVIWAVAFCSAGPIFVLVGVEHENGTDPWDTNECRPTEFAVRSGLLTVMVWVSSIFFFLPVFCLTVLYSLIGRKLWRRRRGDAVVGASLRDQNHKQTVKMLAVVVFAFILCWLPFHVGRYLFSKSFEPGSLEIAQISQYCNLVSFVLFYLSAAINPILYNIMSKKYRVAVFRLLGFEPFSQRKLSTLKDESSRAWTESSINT

Ki	Substance
0.29 nM	H-Apc-D-1-Nal-D-Trp-2-Thi-Lys-NH2 (peptide)
1.99 nM	H-Apc-D-1-Nal-D-1-Nal-Phe-Apc-NH2 (peptide)
93.8 nM	H-Inp-D-Bpa-D-Trp-Phe-Lys-NH2 (peptide)
1.19 nM	H-Inp-D-1-Nal-D-Trp-Taz-Apc-NH2 (peptide)
0.98 nM	H-Apc-D-Bal-D-Trp-2-Thi-NH2 (peptide)
0.46 nM	H-Apc-D-1-Nal-D-Trp-2-Thi-Apc-NH2 (peptide)
0.32 nM	H-Apc-D-Bal-D-Trp-Phe-Lys-NH2 (peptide)
3.48 nM	H-Apc-D-Bal-D-1-Nal-Phe-Apc-NH2 (peptide)
419 nM	H-Inp-D-2-Nal-D-Bpa-Phe-Lys-NH2 (peptide)
0.98 nM	H-Apc-D-1-Nal-D-Trp-Taz-Apc-NH2 (peptide)
0.36 nM	H-Inp-D-1-Nal-D-Trp-Phe-Apc-NH2 (peptide)
25.4 nM	H-Inp-D-2-Nal-D-Trp-Pff-Lys-NH2 (peptide)

More lines, now with the values behind:

Substance	Ki
H-Inp-D-2-Nal-D-Trp-Pff-NH2 (peptide)	36.3 nM
H-Inp-D-2-Nal-D-Bal-Phe-NH2 (peptide)	27.4 nM
H-Apc-D-1-Nal-D-2-Nal-Phe-Apc-NH2 (peptide)	1.71 nM
H-Inp-D-2-Nal-D-Trp-Taz-NH2 (peptide)	6.17 nM
H-Apc-D-2-Nal-D-Trp-2-Thi-NH2 (peptide)	0.95 nM
H-Inp-D-1-Nal-D-Trp-2-Thi-Apc-NH2 (peptide)	0.53 nM
H-Inp-D-Bal-D-Trp-2-Thi-Lys-NH2 (peptide)	0.42 nM
H-Apc-D-Bal-D-Trp-Taz-Apc-NH2 (peptide)	1.13 nM
H-Apc-D-2-Nal-D-Trp-Taz-NH2 (peptide)	2.11 nM
H-Apc-D-1-Nal-D-Trp-Phe-Apc-NH2 (peptide)	0.46 nM
H-Apc-D-Bal-D-2-Nal-Phe-Apc-NH2 (peptide)	1.49 nM
H-Apc-D-Bal-D-Trp-2-Thi-Lys-NH2 (peptide)	0.36 nM
H-Apc-D-Bal-D-Trp-Taz-NH2 (peptide)	1.62 nM
H-Inp-D-Dip-D-Trp-Phe-Lys-NH2 (peptide)	46.8 nM
H-Inp-D-1-Nal-D-Trp-Taz-Lys-NH2 (peptide)	1.11 nM
H-Inp-D-Trp-D-2-Nal(Ψ)-Pim (peptide)	182 nM
H-Inp-D-2-Nal-D-Dip-Phe-NH2 (peptide)	105 nM
H-Inp-D-Dip-D-Trp-Phe-NH2 (peptide)	105 nM
H-Apc-D-1-Nal-D-Trp-2-Thi-NH2 (peptide)	0.73 nM
H-Inp-D-Bal-D-Trp-Phe-NH2 (peptide)	2.3 nM
H-Inp-D-Bip-D-Trp-Phe-Lys-NH2 (peptide)	1.35 nM
H-Inp-D-Bal-D-Trp(Ψ)-Pim (peptide)	48.7 nM
H-Inp-D-2-Nal-D-Trp-Phe-Apc-NH2 (peptide)	0.64 nM
H-Apc-D-2-Nal-D-Trp-Phe-Lys-NH2 (peptide)	0.42 nM
H-Apc-D-1-Nal-D-Trp-Phe-Lys-NH2 (peptide)	0.42 nM

Source: patent US20090304724A1 (IPSEN PHARMA S A S, published 2009)
